Test results: patent publication US20090029366A1 (priority 2007, published 2009)
Only a part of the results on these compounds is given; other tests are left out.

Chains of the proteins cited; added tags and fusions are not shown.
UniProt O60741, whole entry: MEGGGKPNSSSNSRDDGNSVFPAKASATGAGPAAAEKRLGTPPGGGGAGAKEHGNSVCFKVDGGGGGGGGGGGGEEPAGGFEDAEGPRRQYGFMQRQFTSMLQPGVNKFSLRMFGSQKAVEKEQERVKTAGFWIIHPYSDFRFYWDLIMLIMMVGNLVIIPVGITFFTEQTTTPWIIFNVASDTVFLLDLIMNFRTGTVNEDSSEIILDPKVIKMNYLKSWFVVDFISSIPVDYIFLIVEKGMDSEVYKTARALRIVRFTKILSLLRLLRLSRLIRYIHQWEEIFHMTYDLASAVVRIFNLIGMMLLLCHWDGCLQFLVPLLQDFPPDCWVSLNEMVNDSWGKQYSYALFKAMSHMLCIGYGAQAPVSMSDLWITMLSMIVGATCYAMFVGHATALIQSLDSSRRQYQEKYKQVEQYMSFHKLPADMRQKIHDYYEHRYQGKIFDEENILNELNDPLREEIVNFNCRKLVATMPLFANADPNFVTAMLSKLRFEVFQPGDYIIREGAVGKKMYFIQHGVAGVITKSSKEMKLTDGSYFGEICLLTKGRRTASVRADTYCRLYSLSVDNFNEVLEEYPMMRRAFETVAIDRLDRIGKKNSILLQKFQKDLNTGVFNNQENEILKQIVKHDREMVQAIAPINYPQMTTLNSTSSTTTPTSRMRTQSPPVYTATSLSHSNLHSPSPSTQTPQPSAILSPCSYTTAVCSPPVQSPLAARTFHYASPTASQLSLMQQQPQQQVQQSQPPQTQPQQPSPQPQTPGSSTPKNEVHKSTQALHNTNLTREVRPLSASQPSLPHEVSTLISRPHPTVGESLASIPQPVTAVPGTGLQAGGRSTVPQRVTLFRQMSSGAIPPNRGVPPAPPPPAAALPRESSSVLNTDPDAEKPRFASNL

Biological target: human HCN1 (Homo sapiens, UniProt O60741)
Settings: CsCl 1 mM; HEK-293H human HCN1; current clamp

CsCl
reversal of hyperpolarization induced by low sodium/potassium diluent: reversed
